Hits are enriched below; roughly 1.2% of the tested compounds scored in any of these assays.
Statin myotox sup: protects C2C12 myotubes from simvastatin toxicity; hit rate 0.78% among 330,000; rescue of ATP level, % at 7.49 µM; AID 602340; ATP luminescence, 48 h; scaled: DMSO 0, geranylgeraniol control 100;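 active = mean ATP rescue above about 67%, or every replicate alone reaching that limit, limit read from the data, passing the limit was not always enough; inconclusive = no clear call, values can overlap the other calls; inactive = mean under the limit and some replicate under it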;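 note: myotubes were challenged with 10 µM simvastatin during compound exposure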
Glyco luc inh: N-linked glycosylation inhibition; hit rate 0.23% among 360,000; AID 588692; D54 ERlucT glycosylation luciferase reporter, 24 h; percent of 100 nM tunicamycin response; reporter increase, % at 12.5 µM;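 active = mean luciferase reporter signal, scaled so untreated is 0 and the glycosylation-blocking control 100, at or above a set limit in every replicate; inconclusive = mean reaches the limit but not every replicate does; inactive = mean below the limit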;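 note: luciferase carries N-glycosylation sites so blocking glycosylation raises the light; 0% = median of neutral control wells and 100% = median of 100 nM tunicamycin wells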
miR122 inh: inhibitors of miR-122 in Huh7 cells; Huh7 miR-122 Renilla luciferase sensor, 48 h; neutral wells = 0, positive control = 100; AID 602342; activation (reporter increase), % at 12.5 µM; hit rate 0.3% among 340,000;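 active = mean replicate activation score at least 90 and every replicate individually at or above 90; inconclusive = only one of the two criteria met; inactive = neither criterion met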;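 note: higher luciferase means less miR-122 activity so hits act as miR-122 inhibitors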
Cneo AK release: Cryptococcus neoformans lysis via adenylate kinase release; C. neoformans lysis, adenylate kinase release luminescence, 4 h; normalised: neutral wells 0, clomiphene wells 100; hit rate 0.2% among 360,000; lysis activity, % at 15 µM;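 active = mean lysis activity across replicates of at least 80%, whatever share of replicates individually reach that level; inactive = mean lysis activity below 80%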
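read-out = cell lysis signal | test system = log-phase Cryptococcus neoformans yeast cells | input = cells at 5 × 10^6 per mL | medium = fresh YPD growth medium | signal = luminescent adenylate kinase detection reagent | timing = 4 h at 37 °C static, read 1 h later | dosing = single dose | controls = Clomiphene as positive lysis control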
Yeast UUG start: alters start codon recognition fidelity in yeast. S. cerevisiae UUG-firefly luciferase reporter, luminescence/redox ratio. activity score, % at 18.7 µM. 0.13% of 350,000 active. AID 602363;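 active = replicate mean at a twofold rise or more, about +100% in these data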;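 also: firefly luciferase made from a UUG start codon reports start codon fidelity; reporter light over untreated wells divided by growth signal over untreated wells; some hits fall short of that in this replicate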
* marks the source's active call; other numbers are inactive results; ? = inconclusive; · = no result; [ ] = dose if it differs, or a comment.

Assay codes: A = Statin myotox sup; B = Glyco luc inh; C = miR122 inh; D = Cneo AK release; E = Yeast UUG start
CCN(C(=O)c1cnc(N2CCN(c3ncccn3)CC2)c2ccccc12)c1cccc(Cl)c1
  A = 110*; B = -3; C = -7; D = 0; E = -13
C[C@H]1CN([C@@H](C)CO)C(=O)c2cc(C#Cc3ccccc3F)cnc2O[C@@H]1CN(C)C
  A = 9; B = ·; C = -6[16.7 µM]; D = 5; E = 1
COCCOCCn1c(CCCO)nc2ccccc21
  A = 82*; B = 0; C = -4; D = -4; E = -18
Cc1ccc(OCCCn2c(CO)nc3ccccc32)cc1
  A = 134*; B = 0; C = 4; D = -6; E = -15
COc1ccccc1Cn1c(CCCO)nc2ccccc21
  A = 7; B = 0; C = -1; D = 0; E = -12
C[C@@H]1CN([C@@H](C)CO)C(=O)c2cc(NC(=O)Cc3cn(C)c4ccccc34)ccc2O[C@@H]1CN(C)C(=O)NC1CCCCC1
  A = -23; B = ·; C = 2[16.7 µM]; D = -2; E = 27
O=C(CSc1nc2nc(-c3cccs3)cc(C(F)(F)F)c2c(=O)[nH]1)C(F)(F)F
  A = 4; B = 37*; C = -4; D = 1; E = -15
O=C(Nc1ccccc1)c1cccc(N2C(=O)CCC2=O)c1
  A = 97*; B = 2; C = 6; D = 4; E = -20
COc1ccc(S(=O)(=O)Nc2cc(C)c(O)c(S(=O)(=O)c3ccccc3)c2)cc1
  A = 9; B = -1; C = 129*; D = 0; E = 0
Cc1ccc(C2=NOC(C)(c3nnc(Cc4ccccc4)o3)C2)cc1 (stereo not drawn)
  A = -9; B = 2; C = ·; D = -1; E = -11
CCOn1c(=O)c[n+]([O-])c2ccccc21
  A = 1; B = 0; C = 2; D = 3; E = -19
O=c1c[n+]([O-])c2ccccc2n1OCc1c(F)cccc1F
  A = -1; B = -1; C = 111*; D = 6; E = -12
Cc1ccc(S(=O)(=O)N(C)C[C@H]2OCCCC[C@H](C)Oc3ccc(NC(=O)NC(C)C)cc3C(=O)N([C@@H](C)CO)C[C@H]2C)cc1
  A = ·; B = ·; C = 5[16.7 µM]; D = 1; E = 3
CC(C)c1ccc(NC(=O)C2CC(=O)N=C(N)S2)cc1 (stereo not drawn)
  A = 138*; B = 0; C = 1; D = 7; E = -23
Cc1noc(C)c1NC(=O)Nc1ccc2c(c1)C(=O)N([C@@H](C)CO)C[C@@H](C)[C@H](CN(C)S(=O)(=O)c1c(C)noc1C)OCCCC[C@H](C)O2
  A = 34; B = ·; C = 4[16.7 µM]; D = 45; E = 15
Cc1ccc(Cl)cc1NC(=S)N(CCCN1CCOCC1)Cc1ccccn1
  A = ·; B = 4; C = 160*; D = -1; E = -31
S=C(Nc1ccccc1Cl)N(CCCN1CCOCC1)Cc1ccccn1
  A = 4; B = 0; C = 0; D = -2; E = -10
COc1ccc(CN(C)C[C@@H]2Oc3ccc(NC(=O)NC(C)C)cc3C(=O)N([C@H](C)CO)C[C@H]2C)cc1
  A = 3; B = ·; C = 1[16.7 µM]; D = 0; E = ·
COc1ccc(NC(=O)CNC(=O)c2cccs2)cc1Cl
  A = -37; B = 1; C = -6; D = 6; E = -13
Cc1ccc(C)c(S(=O)(=O)Nc2ccc(C(=O)NCCCN(C)C)cc2)c1
  A = 29; B = 2; C = -28; D = 0; E = -16
Cc1ccc(NC(=O)CNC(=O)c2cccs2)cc1S(=O)(=O)Nc1ccc(Cl)cc1
  A = 20; B = -1; C = 98*; D = -1; E = 2
Cc1ccc(NC(=O)c2cc3c(s2)CCCC3)cc1S(=O)(=O)Nc1ccccc1Cl
  A = ·; B = -6; C = 89; D = 1; E = -14
CC(=O)Nc1cc(S(=O)(=O)Nc2ccccc2)c(C)cc1C
  A = 5; B = -1; C = 36; D = 0; E = -14
CC(=O)Nc1cc(S(=O)(=O)Nc2cccc(C)c2)c(C)cc1C
  A = 11; B = -2; C = 144*; D = 0; E = -6
Cc1ccc(C(=O)Nc2ccc(C)c(S(=O)(=O)Nc3ccccc3Cl)c2)s1
  A = ·; B = -4; C = 413*; D = 1; E = -7
Cc1ccc(NS(=O)(=O)c2cc(C(=O)NCCSc3ccc(C)cc3)ccc2C)cc1
  A = 24; B = -5; C = 115*; D = 11; E = -11
COc1ccc(S(=O)(=O)N(C)C[C@@H]2Oc3c(NS(=O)(=O)c4ccc(F)cc4)cccc3C(=O)N([C@H](C)CO)C[C@H]2C)cc1
  A = -3; B = ·; C = 9[16.7 µM]; D = 59; E = 35
Cc1cccc(N2CCN(C(=O)CCCSc3nc4ccccc4[nH]3)CC2)c1C
  A = -1; B = -5; C = -6; D = -1; E = -13
CC(C)NC(=O)N(C)C[C@@H]1Oc2cc(-c3cccnc3)ccc2S(=O)(=O)N([C@H](C)CO)C[C@@H]1C
  A = 2; B = ·; C = -1[16.7 µM]; D = -2; E = -3
CN(C)C(=O)c1cccc(-c2ccc3c(c2)[C@@H]2[C@@H](CCN2C(=O)c2ccccc2F)[C@H](CO)N3)c1
  A = -16; B = ·; C = 3[16.7 µM]; D = 2; E = -2

Laid out differently: 4 of the compounds above
Every second line gives: Statin myotox sup, Glyco luc inh, miR122 inh, Cneo AK release, Yeast UUG start
- Cc1ccc(C)c(S(=O)(=O)Nc2ccc(C(=O)NCCCN(C)C)cc2)c1
 : 29, 2, -28, 0, -16
- Cc1ccc(NC(=O)CNC(=O)c2cccs2)cc1S(=O)(=O)Nc1ccc(Cl)cc1
 : 20, -1, 98*, -1, 2
- Cc1ccc(NC(=O)c2cc3c(s2)CCCC3)cc1S(=O)(=O)Nc1ccccc1Cl
 : ·, -6, 89, 1, -14
- CC(=O)Nc1cc(S(=O)(=O)Nc2ccccc2)c(C)cc1C
 : 5, -1, 36, 0, -14

Next structures.
Assay codes: A = Statin myotox sup; B = Glyco luc inh; C = miR122 inh; D = Cneo AK release; E = Yeast UUG start
Cc1ccc(NS(=O)(=O)c2cc(C(=O)NCCSC3CCCCC3)ccc2C)cc1
  A = 19; B = -6; C = 122*; D = 5; E = -5
Cc1ccc(SCCNC(=O)c2ccc(C)c(S(=O)(=O)Nc3cccc(C)c3)c2)cc1
  A = 49; B = -7; C = 105*; D = -2; E = -9
CS(=O)(=O)Nc1ccccc1C(=O)NCCSc1ccc(Cl)cc1
  A = -11; B = 1; C = 6; D = -3; E = 0
Cc1ccc(C(=O)NCCSc2ccc(Cl)cc2)cc1S(=O)(=O)Nc1ccccc1
  A = 11; B = -6; C = 131*; D = 0; E = -10
Cc1ccc(SCCNC(=O)c2ccccc2)cc1
  A = -21; B = 1; C = 0; D = 1; E = -8
CCCNC(=O)[C@@H]1[C@@H](CO)[C@@H]2Cn3c(ccc(-c4cncnc4)c3=O)[C@@H]2N1C(=O)c1ccccc1F
  A = -6; B = ·; C = -2[16.7 µM]; D = -8; E = 4
O=C(NCCc1ccncc1)c1ccc2nc(Cc3cccc(Cl)c3)oc2c1
  A = 3; B = -5; C = ·; D = 4; E = -11
CC(C)(C)n1nnnc1C(c1cccnc1)N1CCN(c2ccccc2)CC1 (stereo not drawn)
  A = -14; B = -2; C = 4; D = ·; E = ·
CC(C)CC(c1nnnn1C1CCCC1)N1CCN(c2ccccc2F)CC1 (stereo not drawn)
  A = 117*; B = -1; C = 2; D = 4; E = -3
CC(C)(C)n1nnnc1C(c1cccnc1)N1CCN(c2ccccc2F)CC1 (stereo not drawn)
  A = 120*; B = 2; C = 1; D = ·; E = ·
COc1ccc(CN(C)C[C@@H]2Oc3ccc(NS(=O)(=O)c4c(C)noc4C)cc3CC(=O)N([C@@H](C)CO)C[C@@H]2C)cc1
  A = -38; B = ·; C = -3[16.7 µM]; D = ·; E = ·
O=C(COC(=O)CC1CC2CCC1C2)Nc1ccccc1Cl (stereo not drawn)
  A = -7; B = 1; C = ·; D = -2; E = -10
Cc1ccc(Cl)cc1NC(=O)COC(=O)CC1CC2CCC1C2 (stereo not drawn)
  A = 112*; B = 0; C = -7; D = 3; E = -20
Cc1ccc2c(c1)C(=O)N1[C@H]3c4cc(C)ccc4OC[C@@H]3[C@H](c3ccccc3)[C@]1(C)C(=O)N2
  A = 8; B = 24; C = -8; D = 3; E = 9
Cc1ccc2c(c1)C(=O)N1[C@H]3c4cc(Cl)ccc4OC[C@@H]3[C@H](c3ccccc3)[C@]1(C)C(=O)N2
  A = -13; B = ?; C = 0; D = 0; E = 16
Cc1ccc2c(c1)C(=O)N1[C@H]3c4cc(Br)ccc4OC[C@@H]3[C@H](c3ccccc3)[C@]1(C)C(=O)N2
  A = -44; B = 27*; C = -6; D = -4; E = -20
Cc1ccc2c(c1)[C@H]1[C@H](CO2)[C@H](c2ccccc2)[C@]2(C)C(=O)Nc3ccc(Br)cc3C(=O)N12
  A = -9; B = 30*; C = ·; D = 5; E = -19
